Test results reported in patent US20120041167A1, “POLY(GLUTAMIC ACID)-DRUG CONJUGATE WITH AN AMINO ACID AS A LINKER” (Institute of Pharmacology and Toxicology Academy of …, priority 2006, published 2012).

How the values were obtained:
[1] = tested on: human liver cancer cells (HepG2); experiment: Activities against transplanted human liver cancer tumor in mice; assay type: in vivo, Balb/c-nu/nu nude mice; settings: HepG2 xenograft, 20 days after administration; for Number of animals (final/initial): single i.v. dose 100 mg/kg (as free drug)
Description: Balb/c-nu/nu nude mice (5 to 7 weeks old, 16-20 g) were randomly grouped. The mice were inoculated subcutaneously with 0.1 ml of a cell suspension containing 10^6 human liver cancer cells (HepG2). Upon the tumor volume having reached 50 mm^3, the mice were intravenously injected with a dose of a conjugate or a free drug. Twenty days after the administration, the animals were sacrificed and their body weight and tumor weight were measured. Tumor inhibition rate was calculated according to the following equation: […]

[2] = tested on: human breast cancer cells (Bacp-37); experiment: Activities against transplanted human breast cancer tumor in mice; assay type: in vivo, Balb/c-nu/nu nude mice; settings: Bacp-37 xenograft, 20 days after administration; for Number of animals (final/initial): single i.v. dose 100 mg/kg
Description: Balb/c-nu/nu nude mice (5 to 7 weeks old, 16-20 g) were randomly grouped. The mice were inoculated subcutaneously with 0.1 ml of a cell suspension containing 10^6 human breast cancer cells (Bacp-37). Upon the tumor volume having reached 50 mm^3, the mice were intravenously injected with a dose of a conjugate or a free drug. Twenty days after the administration, the animals were sacrificed and their body weight and tumor weight were measured.

| Substance | Change of body weight (g) ([1]; i.v. 5 mg/kg (as free drug)) | Change of body weight (g) ([2]; i.v. 5 mg/kg) | Change of body weight (g) ([1]; i.v. 100 mg/kg (as free drug)) | Number of animals (final/initial) [1] | Change of body weight (g) ([2]; i.v. 100 mg/kg) | Number of animals (final/initial) [2] |
| --- | --- | --- | --- | --- | --- | --- |
| [poly-(L)-glutamic acid]-[5′-O-(glycyl)-gemcitabine] conjugate [Compound I1] | +9.94 g | +9.42 g | – | – | – | – |
| [N-acetyl-poly-(L)-glutamic acid]-[2′-O-(L-isoleucyl)-docetaxel] conjugate [Compound I18] | – | – | +8.75 g | 6/6 | +9.16 g | 6/6 |
| [N-acetyl-poly-(L)-glutamic acid]-[2′-O-(glycyl)-docetaxel] conjugate [Compound I6] | – | – | – | 6/6 | – | 6/6 |
| [N-acetyl-poly-(L)-glutamic acid]-[2′-O-(glycyl)-paclitaxel] conjugate [Compound I4] | – | – | +9.03 g | – | +9.24 g | – |
| [N-acetyl-poly-(L)-glutamic acid]-[2′-O-(L-alanyl)-paclitaxel] conjugate [Compound I10] | – | – | – | 6/6 | – | 6/6 |
| [N-acetyl-poly-(L)-glutamic acid]-[2′-O-(L-valyl)-paclitaxel] conjugate [Compound I22] | – | – | – | 6/6 | – | 6/6 |
